The test system of the assay is Tyrosine--tRNA ligase (Staphylococcus aureus). In words: Compound was tested for inhibition of Staphylococcus aureus tyrosyl tRNA Synthetase; NI=No inhibition.

As for `N[C@@H](Cc1ccc(O)cc1)C(=O)N[C@@H](Cc1ccccc1)C(=O)O`, the IC50 entry is reported as “No inhibition”.

Source of the values: ChEMBL document CHEMBL1132002, “Interaction of tyrosyl aryl dipeptides with S. aureus tyrosyl tRNA synthetase: inhibition and crystal structure of a complex” (Bioorg Med Chem Lett, 1999).
